1 molecule from PMC5793879 (Cancer cell, 2017) can be followed below.

Protein sequences, listed by entry. Tags and fused reporters are not part of them. Residues count along the entry.
UniProt Q16611, 2-185 limits assumed: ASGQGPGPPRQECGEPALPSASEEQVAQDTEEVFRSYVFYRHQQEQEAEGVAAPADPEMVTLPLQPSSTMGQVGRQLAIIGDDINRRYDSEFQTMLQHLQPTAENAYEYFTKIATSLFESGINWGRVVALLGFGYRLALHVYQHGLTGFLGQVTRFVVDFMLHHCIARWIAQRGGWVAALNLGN

The experiment has as its target BAK (Homo sapiens, UniProt Q16611).

As for `O=C1C(=NNc2nccs2)C(c2ccccc2)=NN1c1nc(-c2ccccc2)cs1` [BTSA1], the “direct activation of BAK” value is recorded as “no capacity to directly activate”.
